The series can be described thus: Flowability by powder tester Model PT-N, Carr's flowability index method. It is filed as physicochemical. How it is done: As for evaluation of flowability, parameters of angle of repose, degree of compaction, spatula angle, and degree of aggregation were measured by using a powder tester Model PT-N produced by HOSOKAWA MICRON CORP. based on the method for evaluating Carr's flowability index.

Consider “sodium N-cocoyl glycinate [Na cocoylglycinate]”, for which the Flowability index is reported as 74.0 (140 mesh pass cut sample (106 μm)); 70.0 (200 mesh pass cut sample (75 μm)); 70.0 (280 mesh pass cut sample (53 μm)); 58.0 (control, not subjected to sieve classification).

Source of the values: patent publication US20030162687A1, “Surfactants” (AJINOMOTO CO. INC., priority 2002, published 2003).
